Chains of the proteins cited; added tags and fusions are not shown.
UniProt Q13133, whole entry: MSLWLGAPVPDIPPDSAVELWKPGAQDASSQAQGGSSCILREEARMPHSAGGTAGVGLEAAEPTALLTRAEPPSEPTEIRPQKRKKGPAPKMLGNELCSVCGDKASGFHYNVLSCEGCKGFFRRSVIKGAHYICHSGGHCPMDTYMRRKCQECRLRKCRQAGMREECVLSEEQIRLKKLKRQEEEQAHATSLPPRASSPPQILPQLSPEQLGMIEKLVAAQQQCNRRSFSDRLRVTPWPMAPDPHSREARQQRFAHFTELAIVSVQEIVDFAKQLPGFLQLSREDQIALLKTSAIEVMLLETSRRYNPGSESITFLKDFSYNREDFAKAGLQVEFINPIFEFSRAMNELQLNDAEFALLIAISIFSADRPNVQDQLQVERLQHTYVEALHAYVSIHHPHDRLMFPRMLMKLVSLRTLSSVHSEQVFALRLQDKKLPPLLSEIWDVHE
UniProt P22736, whole entry: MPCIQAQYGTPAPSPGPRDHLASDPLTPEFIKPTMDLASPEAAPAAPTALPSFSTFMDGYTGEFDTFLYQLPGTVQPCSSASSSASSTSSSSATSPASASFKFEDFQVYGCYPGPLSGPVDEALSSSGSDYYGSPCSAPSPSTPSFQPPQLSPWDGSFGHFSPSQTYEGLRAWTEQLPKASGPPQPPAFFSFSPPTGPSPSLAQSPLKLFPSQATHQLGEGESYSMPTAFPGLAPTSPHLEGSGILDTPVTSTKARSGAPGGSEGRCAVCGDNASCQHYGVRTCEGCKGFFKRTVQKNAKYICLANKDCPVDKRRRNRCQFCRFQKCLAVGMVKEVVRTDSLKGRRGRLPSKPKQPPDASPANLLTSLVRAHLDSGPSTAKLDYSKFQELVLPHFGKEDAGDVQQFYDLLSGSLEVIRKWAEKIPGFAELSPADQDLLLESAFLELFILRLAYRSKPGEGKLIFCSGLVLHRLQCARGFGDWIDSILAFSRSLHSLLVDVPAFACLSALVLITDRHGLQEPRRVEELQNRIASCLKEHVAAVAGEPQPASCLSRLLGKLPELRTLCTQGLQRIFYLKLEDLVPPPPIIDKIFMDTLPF
UniProt P43354, whole entry: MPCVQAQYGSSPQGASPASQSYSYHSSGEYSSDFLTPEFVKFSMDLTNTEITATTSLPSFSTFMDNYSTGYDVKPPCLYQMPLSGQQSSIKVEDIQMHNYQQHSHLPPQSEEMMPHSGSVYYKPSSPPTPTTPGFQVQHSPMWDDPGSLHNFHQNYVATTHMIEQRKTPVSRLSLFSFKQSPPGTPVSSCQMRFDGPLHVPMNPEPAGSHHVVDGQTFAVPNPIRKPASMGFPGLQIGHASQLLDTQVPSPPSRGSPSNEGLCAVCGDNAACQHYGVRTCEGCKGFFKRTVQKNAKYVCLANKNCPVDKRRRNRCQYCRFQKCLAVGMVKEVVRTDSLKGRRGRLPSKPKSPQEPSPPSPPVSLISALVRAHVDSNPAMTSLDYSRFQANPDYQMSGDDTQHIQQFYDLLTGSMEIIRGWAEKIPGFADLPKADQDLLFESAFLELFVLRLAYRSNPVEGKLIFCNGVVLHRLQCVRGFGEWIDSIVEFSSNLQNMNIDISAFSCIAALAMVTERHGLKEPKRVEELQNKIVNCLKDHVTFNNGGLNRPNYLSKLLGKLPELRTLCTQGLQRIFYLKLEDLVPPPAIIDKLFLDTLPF
UniProt Q13285, whole entry: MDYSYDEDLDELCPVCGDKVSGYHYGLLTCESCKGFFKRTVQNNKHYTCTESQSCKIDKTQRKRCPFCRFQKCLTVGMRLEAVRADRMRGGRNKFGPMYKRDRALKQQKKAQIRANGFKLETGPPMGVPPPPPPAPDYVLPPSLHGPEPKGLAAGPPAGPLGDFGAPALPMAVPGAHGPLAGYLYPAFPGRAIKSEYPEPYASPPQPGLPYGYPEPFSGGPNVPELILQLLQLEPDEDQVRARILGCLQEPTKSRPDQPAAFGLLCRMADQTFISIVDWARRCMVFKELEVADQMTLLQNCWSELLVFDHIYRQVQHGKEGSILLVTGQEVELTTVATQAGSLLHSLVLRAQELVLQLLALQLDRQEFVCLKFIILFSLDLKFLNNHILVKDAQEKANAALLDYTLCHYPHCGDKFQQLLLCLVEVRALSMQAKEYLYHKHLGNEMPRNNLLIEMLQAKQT

In ChEMBL document CHEMBL5375987, “Structural Fusion of Natural and Synthetic Ligand Features Boosts RXR Agonist Potency” (J Med Chem, 2023):

Columns and labels:
[1] = target: T1, Thyroid hormone receptor beta (Homo sapiens) (UniProt P10828); experiment: Agonist activity at NR1A2 (unknown origin) at 1 uM
T1 sequence (whole entry): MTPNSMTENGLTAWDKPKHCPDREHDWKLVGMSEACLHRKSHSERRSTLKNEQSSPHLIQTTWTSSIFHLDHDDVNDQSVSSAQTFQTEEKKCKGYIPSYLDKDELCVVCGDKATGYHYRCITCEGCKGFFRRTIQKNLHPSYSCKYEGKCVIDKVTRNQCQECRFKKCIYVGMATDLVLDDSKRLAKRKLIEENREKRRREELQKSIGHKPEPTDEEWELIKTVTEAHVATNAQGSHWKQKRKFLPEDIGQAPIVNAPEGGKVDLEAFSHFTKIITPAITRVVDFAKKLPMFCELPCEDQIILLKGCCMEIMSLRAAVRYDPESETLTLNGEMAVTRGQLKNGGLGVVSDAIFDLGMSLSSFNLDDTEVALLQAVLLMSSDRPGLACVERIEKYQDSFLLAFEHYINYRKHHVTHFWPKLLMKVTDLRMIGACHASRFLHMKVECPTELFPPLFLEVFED

[2] = target: T2, Peroxisome proliferator-activated receptor alpha (Homo sapiens) (UniProt Q07869); experiment: Agonist activity at NR1C1 (unknown origin) at 1 uM
T2 sequence (whole entry): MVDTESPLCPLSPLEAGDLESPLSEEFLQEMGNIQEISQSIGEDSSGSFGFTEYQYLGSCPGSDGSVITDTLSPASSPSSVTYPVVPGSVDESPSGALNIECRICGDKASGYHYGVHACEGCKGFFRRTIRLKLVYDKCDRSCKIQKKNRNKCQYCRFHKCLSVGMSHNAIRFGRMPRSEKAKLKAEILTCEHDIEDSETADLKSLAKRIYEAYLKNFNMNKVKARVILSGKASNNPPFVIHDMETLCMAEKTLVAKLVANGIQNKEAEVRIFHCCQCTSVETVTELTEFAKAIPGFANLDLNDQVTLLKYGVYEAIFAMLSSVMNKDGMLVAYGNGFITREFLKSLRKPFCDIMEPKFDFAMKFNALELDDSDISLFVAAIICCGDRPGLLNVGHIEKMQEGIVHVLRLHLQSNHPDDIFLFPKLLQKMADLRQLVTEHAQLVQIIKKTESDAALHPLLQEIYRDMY

[3] = target: Oxysterols receptor LXR-alpha (Homo sapiens) (UniProt Q13133); experiment: Agonist activity at NR1H3 (unknown origin) at 1 uM
[4] = target: Nuclear receptor subfamily 4immunitygroup A member 1 (Homo sapiens) (UniProt P22736); experiment: Agonist activity at NR4A1 (unknown origin) at 1 uM
[5] = target: T3, Nuclear receptor subfamily 1 group D member 1 (Homo sapiens) (UniProt P20393); experiment: Agonist activity at NR1D1 (unknown origin) at 1 uM
T3 sequence (whole entry): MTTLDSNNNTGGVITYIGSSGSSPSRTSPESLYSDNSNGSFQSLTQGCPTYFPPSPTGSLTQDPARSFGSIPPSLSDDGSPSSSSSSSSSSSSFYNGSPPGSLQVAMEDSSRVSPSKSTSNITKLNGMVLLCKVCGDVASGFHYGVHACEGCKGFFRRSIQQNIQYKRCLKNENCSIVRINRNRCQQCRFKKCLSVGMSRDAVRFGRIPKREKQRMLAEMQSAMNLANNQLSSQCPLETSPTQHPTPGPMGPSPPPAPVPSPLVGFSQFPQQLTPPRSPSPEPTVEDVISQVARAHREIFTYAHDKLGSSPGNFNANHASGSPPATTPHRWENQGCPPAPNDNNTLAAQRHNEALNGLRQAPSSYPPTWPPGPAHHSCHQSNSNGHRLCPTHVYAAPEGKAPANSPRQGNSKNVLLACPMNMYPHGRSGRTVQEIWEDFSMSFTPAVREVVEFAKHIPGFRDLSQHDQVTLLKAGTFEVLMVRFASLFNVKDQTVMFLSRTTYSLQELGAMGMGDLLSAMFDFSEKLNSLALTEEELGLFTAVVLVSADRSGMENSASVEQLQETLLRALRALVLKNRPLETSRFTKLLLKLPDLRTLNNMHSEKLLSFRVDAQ

[6] = target: Nuclear receptor subfamily 4immunitygroup A member 1 (Homo sapiens) (UniProt P22736); experiment: Inverse agonist activity at NR4A1 (unknown origin) at 1 uM
[7] = target: T4, Nuclear receptor subfamily 2 group C member 2 (Homo sapiens) (UniProt P49116); experiment: Inverse agonist activity at NR2C2 (unknown origin) at 1 uM
T4 sequence (whole entry): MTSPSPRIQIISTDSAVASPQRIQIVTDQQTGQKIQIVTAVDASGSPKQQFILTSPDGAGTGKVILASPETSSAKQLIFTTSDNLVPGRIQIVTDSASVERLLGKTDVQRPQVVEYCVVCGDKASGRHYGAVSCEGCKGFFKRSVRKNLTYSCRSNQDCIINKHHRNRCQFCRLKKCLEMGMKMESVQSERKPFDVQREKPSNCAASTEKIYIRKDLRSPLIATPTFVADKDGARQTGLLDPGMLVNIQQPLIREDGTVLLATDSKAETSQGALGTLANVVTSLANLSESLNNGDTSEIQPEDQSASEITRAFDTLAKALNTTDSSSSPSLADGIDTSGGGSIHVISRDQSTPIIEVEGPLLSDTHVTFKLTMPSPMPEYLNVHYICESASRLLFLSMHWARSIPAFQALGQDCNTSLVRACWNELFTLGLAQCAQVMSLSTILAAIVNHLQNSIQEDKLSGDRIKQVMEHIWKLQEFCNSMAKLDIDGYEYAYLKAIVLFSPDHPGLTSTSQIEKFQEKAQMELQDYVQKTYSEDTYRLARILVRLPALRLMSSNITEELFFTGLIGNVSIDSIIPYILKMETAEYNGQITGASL

[8] = target: T5, Vitamin D3 receptor (Homo sapiens) (UniProt P11473); experiment: Antagonist activity at NR1I1 (unknown origin) at 1 uM
T5 sequence (whole entry): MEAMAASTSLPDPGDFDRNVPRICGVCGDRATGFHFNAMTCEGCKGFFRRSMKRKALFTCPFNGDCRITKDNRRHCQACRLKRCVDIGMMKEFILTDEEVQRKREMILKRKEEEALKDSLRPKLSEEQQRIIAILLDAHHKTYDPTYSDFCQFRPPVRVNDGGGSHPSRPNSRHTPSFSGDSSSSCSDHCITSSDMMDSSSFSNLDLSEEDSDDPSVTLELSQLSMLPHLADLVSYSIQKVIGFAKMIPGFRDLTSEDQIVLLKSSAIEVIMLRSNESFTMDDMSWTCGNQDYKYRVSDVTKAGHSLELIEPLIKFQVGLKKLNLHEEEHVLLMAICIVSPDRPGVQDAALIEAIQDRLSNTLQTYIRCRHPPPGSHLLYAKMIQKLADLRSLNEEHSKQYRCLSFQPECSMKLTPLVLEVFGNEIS

[9] = target: Nuclear receptor subfamily 4immunitygroup A member 1 (Homo sapiens) (UniProt P22736); experiment: Antagonist activity at NR4A1 (unknown origin) at 1 uM
[10] = target: Nuclear receptor subfamily 4 group A member 2 (Homo sapiens) (UniProt P43354); experiment: Antagonist activity at NR4A2 (unknown origin) at 1 uM
[11] = target: Steroidogenic factor 1 (Homo sapiens) (UniProt Q13285); experiment: Antagonist activity at NR5A1 (unknown origin) at 1 uM

Measured: Activity

O=C(O)[C@@H]1C[C@H]1c1nc(-c2ccccc2)c(-c2cc(C(F)(F)F)cc(C(F)(F)F)c2)o1 (racemic)
inactive: all assays above

Activity calls are given as the source filed them.
